# According to PubChem BioAssay AID1775 (NMMLSC, 2009):
# “And” between values parts separate entries of the source, which are not always exact repeats. Identical values can stand only once. Only a part is listed here, and it is no random draw. The source made the active and inactive calls. Rule as the data show it: active = fluorescence above about 47; inactive = the rest.
# Assay: green autofluorescence of compounds with avidin beads – biophysical, 488/530 nm, flow cytometry, artefact control, profiling panel (AID 1775)
# Conditions: compound fluorescence 488/530 nm, at 10 µM, stronger effect = higher value
row,SMILES,fluorescence (KMESF)
1,Nc1cccc2ccc([As](=O)(O)O)cc12,inactive: 5
2,CCN(N=Nc1nonc1N)c1nonc1N,inactive: 16
3,O=P(Nc1nc2ccc(Cl)cc2s1)(c1ccccc1)c1ccccc1,inactive: 7
4,O=C(O)c1ccccc1[As](=O)(O)O,inactive: 5
5,CC(=O)Nc1ccc([As](=O)(O)O)cc1,inactive: 3
6,CCOP(=O)(Nc1ccccc1)OCC,inactive: 14 and inactive: 3
7,Cc1cc(SC(NC(=O)c2ccc(F)cc2)C(Cl)(Cl)Cl)ncn1 (stereo not drawn),inactive: 13
8,Cc1ccc(NP(=O)(Oc2ccccc2F)Oc2ccccc2F)nc1,inactive: 8
9,Oc1ccccc1CNc1ccccn1,inactive: 13
10,Cc1c2non([O-])c-2c(C)[n+](=O)[n+]1[O-],inactive: 26
11,O=C(NC(Sc1ccncn1)C(Cl)(Cl)Cl)c1ccccc1 (stereo not drawn),inactive: 3
12,CC(C)CC(=O)NC(Sc1ccc(Cl)cc1)C(Cl)(Cl)Cl (stereo not drawn),inactive: 8
13,Nc1cc(N)c2nonc2c1[N+](=O)[O-],inactive: 8
14,Cc1ccc(N/C(=N/P(=O)(N2CCOCC2)N2CCOCC2)N2CCOCC2)cc1,inactive: 15
15,NC(=O)c1cc([N+](=O)[O-])cc([N+](=O)[O-])c1N,inactive: 12
16,Clc1ccc(Cl)c(NC2=NCC(CBr)S2)c1 (stereo not drawn),inactive: 6
17,CN1CCCC(OC(=O)C(c2ccccc2)c2ccccc2)C1 (stereo not drawn),inactive: 18
18,COc1ccccc1OP(=O)(Nc1ccc(C)cn1)Oc1ccccc1OC,inactive: 9
19,Cc1ccc(OP(=O)(Nc2nccs2)Oc2ccc(C)cc2)cc1,inactive: 8
20,CCN(/C(=N/P(=O)(N1CCOCC1)N1CCOCC1)N1CCOCC1)c1ccc(OC)cc1,inactive: 26
21,Nc1ccc([As](=O)(O)c2ccc(N)cc2)cc1,inactive: 2
22,C[N+]1=C2C=CC=CC=C2SC12C([N+](=O)[O-])=CC([N+](=O)[O-])=C[C-]2[N+](=O)[O-] (stereo not drawn),inactive: 6
23,CC1CCN(C(=O)Oc2c(Cl)cc(Cl)c3cccnc23)CC1,inactive: 11
24,CC(C)=N/N=C(\N)N[N+](=O)[O-],inactive: 5
25,CN(C)C(=O)OCCc1n(C)cc[n+]1C,inactive: 3
26,COc1ccc(C2=NCC(CBr)S2)cc1 (stereo not drawn),inactive: 10

row,SMILES,fluorescence (KMESF)
1,Cc1ccc(NP(=O)(Oc2ccccc2)Oc2ccccc2)nc1,inactive: 11
2,CCc1nc2c(n1)c1c(non1O)c1c2no[n+]1[O-],inactive: 17
3,O=[N+]([O-])c1cc([N+](=O)[O-])c(CCNc2ccccc2)c([N+](=O)[O-])c1,inactive: 9
4,O=[N+]([O-])c1cccc2n[nH]nc12,inactive: 5
5,CC(=O)N1C2C3N(C(C)=O)C1C1N(C(C)=O)C(C(N1C(C)=O)N3C(C)=O)N2C(C)=O,inactive: 4
6,O=[N+]([O-])c1ncn(CCn2ncnc2[N+](=O)[O-])n1,inactive: 11
7,CC(C)(C)C(=O)NC(Sc1ccncn1)C(Cl)(Cl)Cl (stereo not drawn),inactive: 5
8,O=C(O)CNc1ccc([As](=O)(O)O)cc1,inactive: 4
9,O=[N+]([O-])c1cccc(NC2=NCC(CBr)S2)c1 (stereo not drawn),inactive: 5
10,O=C(Nc1cc([As](=O)(O)O)ccc1O)c1ccccc1,inactive: 8
11,O=[As](O)(c1ccccc1)c1ccc(O)cc1,inactive: 6
12,CC(=O)NC(SC(=S)N(C)C)C(Cl)(Cl)Cl (stereo not drawn),inactive: 11
13,O=[N+]([O-])c1ncn(CCn2cnc([N+](=O)[O-])n2)n1,inactive: 10
14,O=C(OC1CN2CCC1CC2)c1cccc(Cl)c1 (stereo not drawn),inactive: 11
15,Nc1ccc([As](=O)(O)c2ccc([N+](=O)[O-])cc2)cc1,inactive: 5
16,C(Cc1nn[nH]n1)Cc1nn[nH]n1,inactive: 7
17,O=P(Nc1ccccn1)(c1ccc(Br)cc1)c1ccc(Br)cc1,inactive: 9
18,O=P(Nc1nc2ccccc2s1)(c1ccccc1)c1ccccc1,inactive: 6
19,C[C@H]1OP(=O)(Oc2ccccc2)[C@H](O)[C@H](O)[C@H]1N=[N+]=[N-] (stereo partly drawn),inactive: 8
20,CC(C)C(=O)NC(Sc1ccccc1)C(Cl)(Cl)Cl (stereo not drawn),inactive: 19
21,O=P(Nc1nccs1)(c1ccccc1)c1ccccc1,inactive: 17
22,c1nnnn1CCn1cnnn1,inactive: 17
23,C[C@@H]1C=CCP(=O)(Oc2ccccc2)O1 (stereo partly drawn),inactive: 8
24,C[C@H]1OP(=O)(Oc2ccccc2)C[C@@H]2O[C@@H]21 (stereo partly drawn),inactive: 9
25,CC(=O)Nc1ccc([As](=O)(O)O)c(O)c1,inactive: 9
26,CC(=O)Nc1ccc(Oc2c([N+](=O)[O-])cc([N+](=O)[O-])cc2[N+](=O)[O-])cc1,inactive: 10

row,SMILES,fluorescence (KMESF)
1,O=P1(Nc2nc3ccc(Cl)cc3s2)COc2ccccc2O1 (stereo not drawn),inactive: 5
2,CCOc1ccc(C2=NCC(CBr)S2)cc1 (stereo not drawn),inactive: 9
3,CC(C)(C)C(=O)NC(Sc1ccccc1)C(Cl)(Cl)Cl (stereo not drawn),inactive: 9
4,CCC(=O)N1C2C3N(C(=O)CC)C1C1N(C(=O)CC)C(C(N1C(=O)CC)N3C(=O)CC)N2C(=O)CC,inactive: 3
5,COC(=O)c1cc2c(s1)N=C(c1ccccc1)N(C)P2(=O)N1CCOCC1 (stereo not drawn),inactive: 20
6,CC(=O)NC(SC(=S)N(CC(C)C)CC(C)C)C(Cl)(Cl)Cl (stereo not drawn),inactive: 10
7,Cc1ccc(OP(=O)(Nc2ccccn2)Oc2ccc(C)cc2)cc1,inactive: 19
8,Cc1ccccc1OP(=O)(Nc1ccccn1)Oc1ccccc1C,inactive: 7
9,CN(C)C(=O)Oc1noc2ccccc12,inactive: 7
10,O=c1c2cc([N+](=O)[O-])ccc2[nH]c2c([N+](=O)[O-])cc([N+](=O)[O-])cc12,inactive: 9
11,c1ccc(-c2nn[nH]n2)c(-c2nn[nH]n2)c1,inactive: 6
12,Cc1ccc(NP(=O)(Oc2cccc(C)c2)Oc2cccc(C)c2)nc1,inactive: 7
13,CCOC(=O)NC(Sc1ccccc1)C(Cl)(Cl)Cl (stereo not drawn),inactive: 18
14,CCNC(=S)/N=C(\N)N[N+](=O)[O-],inactive: 7
15,O=C(NC1CCS(=O)(=O)C1)NP(=S)(Oc1ccccc1)Oc1ccccc1 (stereo not drawn),inactive: 9
16,NC(=O)Nc1ccc([As](=O)(O)O)cc1,inactive: 9
17,CN(C(=O)Cc1ccccc1)[C@@H]1CC[C@]2(CCCO2)C[C@H]1N1CCCC1,inactive: 7
18,CCOP1(=S)c2c(C)nn(CCC#N)c2N=C(c2ccc(F)cc2)N1C (stereo not drawn),inactive: 10
19,O=[N+]([O-])c1ccc2c(c1)nnn2O,inactive: 3
20,CCOP1(=S)c2c(C)nn(CCC#N)c2N=C(c2ccccc2F)N1C (stereo not drawn),inactive: 17
21,O=P(Nc1nccs1)(c1ccccc1)c1nc2ccccc2s1 (stereo not drawn),inactive: 17
22,O=P(Nc1nccs1)(Oc1ccccc1)Oc1ccccc1,inactive: 9
23,CS(=O)(=O)c1cc([N+](=O)[O-])c2no[n+]([O-])c2c1,inactive: 4
24,Nc1ccccc1[As](=O)(O)c1ccccc1,inactive: 11
25,O=C(O)COc1ccc([As](=O)(O)O)cc1[N+](=O)[O-],inactive: 6
26,Cc1ccc(NCCc2c([N+](=O)[O-])cc([N+](=O)[O-])cc2[N+](=O)[O-])cc1,inactive: 3

row,SMILES,fluorescence (KMESF)
1,Nc1cccc2c([As](=O)(O)O)cccc12,inactive: 1
2,CCCOP(=S)(Nc1nc(N)cc(=O)[nH]1)OCCC,inactive: 8
3,COc1cc(C2NCCC3(OCCO3)C2(C)C)cc(OC)c1OC (stereo not drawn),inactive: 24
4,CCOP(=O)(Nc1cccc2ccccc12)OCC,inactive: 6
5,O=C(OC1CN2CCC1CC2)c1ccc(Cl)cc1 (stereo not drawn),inactive: 6
6,COc1cc(C(=O)NCC2(N3CCOCC3)CCCCC2)cc(Cl)c1OC(C)C,inactive: 23
7,O=[As](O)(O)c1cccnc1,inactive: 8
8,O=[As](O)(c1cccc(O)c1)c1cccc(O)c1,inactive: 4
9,Cc1cccc(OCC(=O)OC2CN3CCC2CC3)c1 (stereo not drawn),inactive: 33
10,CC(C)/C=N\N=C(\N)N[N+](=O)[O-],inactive: 3
11,CN(C(=O)Cc1ccc(Cl)c(Cl)c1)[C@@H]1CCCC[C@H]1N1CCCC1,inactive: 6
12,O=[As](O)(c1ccccc1Br)c1ccccc1Br,inactive: 16
13,O=P1(Nc2ccccn2)COc2ccccc2OC1,inactive: 16
14,CCOP(=O)(Nc1ccc(C)cn1)OCC,inactive: 10
15,Clc1n[nH]nc1-c1nn[nH][15n]1,inactive: 11
16,CC(C)(C)C(=O)NC(Sc1ncccn1)C(Cl)(Cl)Cl (stereo not drawn),inactive: 4
17,O=P1(Nc2ncccn2)COc2ccccc2OC1,inactive: 7
18,Nc1cccc([As](=O)(O)c2ccccc2)c1,inactive: 9
19,O=P1(Nc2ccc(Br)cn2)COc2ccccc2OC1,inactive: 7
20,Cc1ccc(OCC(=O)OC2CN3CCC2CC3)cc1 (stereo not drawn),inactive: 5
21,O=[As](O)(c1cccs1)c1cccs1,inactive: 8
22,Cc1nn(-c2ccccc2)c2c1P(=O)(N1CCOCC1)N(C)C(c1ccccc1)=N2 (stereo not drawn),inactive: 37
23,CC1CCC(C(C)C)C(OP(=O)(Nc2ccccn2)c2ccccc2)C1 (stereo not drawn),inactive: 7
24,CN(C)C1(CNC(=O)c2ccc(S(C)(=O)=O)cc2)CCCCC1,inactive: 5
25,O=C(/C=C/c1ccccc1)OC1CN2CCC1CC2 (stereo not drawn),inactive: 9
26,CCOC(=O)Nc1cccc([As](=O)(O)O)c1,inactive: 8

row,SMILES,fluorescence (KMESF)
1,O=P(Nc1ccccn1)(c1cccc2ccccc12)c1cccc2ccccc12,inactive: 9
2,Cc1cc(SC(NC=O)C(Cl)(Cl)Cl)ncn1 (stereo not drawn),inactive: 9
3,O=[N+]([O-])c1ccc(Nc2ccc(Oc3ccc([N+](=O)[O-])cc3[N+](=O)[O-])cc2)c([N+](=O)[O-])c1,inactive: 6
4,CCOC(=O)Nc1ccc([As](=O)(O)O)c(O)c1,inactive: 6
5,Cc1cc(SC(NC(=O)c2ccccc2)C(Cl)(Cl)Cl)nc(C(C)C)n1 (stereo not drawn),inactive: 8
6,CCOC(=O)c1ccc(NC(=O)C(C)(CCl)SC)cc1 (stereo not drawn),inactive: 7
7,CCC(C)N(CC(C)C)C(=S)SC(NC(C)=O)C(Cl)(Cl)Cl (stereo not drawn),inactive: 6
8,COP1(=S)c2c(C)nn(CCC#N)c2N=C(c2ccc(F)cc2)N1C (stereo not drawn),inactive: 18
9,O=C(COc1ccccc1)OC1CN2CCC1CC2 (stereo not drawn),inactive: 13
10,COc1ccc(N/C(=N/P(=O)(N2CCOCC2)N2CCOCC2)N2CCOCC2)cc1,inactive: 25
11,Cc1c2c(nc3ccccc13)SC(C(Cl)Cl)C2 (stereo not drawn),inactive: 5
12,O=C(OC1CN2CCC1CC2)C12CC3CC(CC(C3)C1)C2 (stereo not drawn),inactive: 17
13,Cc1cc(=O)[nH]c(N[N+](=O)[O-])n1,inactive: 26
14,COc1ccc2nc(NP(=O)(c3ccccc3)c3ccccc3)sc2c1,inactive: 22
15,COc1cc(I)ccc1[As](=O)(O)O,inactive: 8
16,ClCCSc1nnc(-c2cccnc2)o1,inactive: 8
17,CC(C)c1ccc(OP(=O)(Nc2ccccn2)Oc2ccccc2F)cc1 (stereo not drawn),inactive: 3
18,CCN(CC)C(=S)SC(NC=O)C(Cl)(Cl)Cl (stereo not drawn),inactive: 18
19,CC(C)NC(=O)NP(=O)(Oc1ccccc1)Oc1ccccc1,inactive: 8
20,O=[N+]([O-])c1cc([N+](=O)[O-])c(-c2ccn[nH]2)s1,inactive: 3
21,C[As](=O)(O)c1cccc(C(=O)O)c1,inactive: 4
22,O=[As](O)(c1ccc(O)cc1)c1ccccc1O,inactive: 9
23,Cc1ccc(OP(=O)(Nc2ccc([N+](=O)[O-])cn2)Oc2ccc(C)cc2)cc1,inactive: 6
24,Cc1ccc2nc3c(c(C)c2c1)CC(C(Cl)Cl)S3 (stereo not drawn),inactive: 15
